In ChEMBL document CHEMBL6134819, “Discovery of novel tranylcypromine-indazole-based derivatives as LSD1 inhibitors for acute myeloid leukemia treatment” (Eur J Med Chem, 2025):
pIC50: −log10 of the molar value.

Molecular target: Lysine-specific histone demethylase 1A (Homo sapiens, UniProt O60341)
Assay: Inhibition of human recombinant LSD1 (852 residues) incubated for 1 hr by HTRF method

pIC50: 8.01
SMILES: Cl.O=S(=O)(c1ccccc1)n1ncc2cc(-n3cc(CN[C@@H]4C[C@H]4c4ccc(F)c(F)c4)nn3)ccc21
